The values that follow are results of earlier work, collected in paper PMC3974845 (International journal of peptide research and therapeutics, 2013).

The chains behind the UniProt entries cited, without tags or fusion partners.
UniProt P40763, whole entry, species assumed: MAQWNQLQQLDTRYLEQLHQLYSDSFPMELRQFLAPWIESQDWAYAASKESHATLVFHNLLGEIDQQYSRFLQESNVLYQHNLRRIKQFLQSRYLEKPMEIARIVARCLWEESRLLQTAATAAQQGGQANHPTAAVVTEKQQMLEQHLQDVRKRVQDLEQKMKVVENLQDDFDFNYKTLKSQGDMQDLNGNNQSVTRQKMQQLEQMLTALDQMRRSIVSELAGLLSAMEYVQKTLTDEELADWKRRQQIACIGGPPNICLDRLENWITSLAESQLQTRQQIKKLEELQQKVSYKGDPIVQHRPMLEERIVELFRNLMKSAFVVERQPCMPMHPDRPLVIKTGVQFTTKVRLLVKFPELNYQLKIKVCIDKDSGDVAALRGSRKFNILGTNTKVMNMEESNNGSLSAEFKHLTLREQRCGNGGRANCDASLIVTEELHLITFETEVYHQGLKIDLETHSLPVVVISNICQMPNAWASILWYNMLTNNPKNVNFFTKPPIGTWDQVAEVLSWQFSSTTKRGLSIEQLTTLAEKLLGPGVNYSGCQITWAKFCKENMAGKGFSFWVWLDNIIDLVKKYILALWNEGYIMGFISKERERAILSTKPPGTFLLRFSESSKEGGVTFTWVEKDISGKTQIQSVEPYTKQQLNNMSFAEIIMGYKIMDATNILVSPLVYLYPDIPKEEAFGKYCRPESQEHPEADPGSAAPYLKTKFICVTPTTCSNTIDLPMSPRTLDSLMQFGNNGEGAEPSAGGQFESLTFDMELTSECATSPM

The term IC50 denotes the concentration that inhibits the measured activity by half.

Like-named read-outs stand apart in the source and are kept apart here.

For this data set, the target named is full length Stat3 (SH2 domain) (Homo sapiens, UniProt P40763). Particulars: ref Mandal et al. 2011.

With βMpCinn-Leu-Pro-Apa [Compound 17], the IC50 (affinity for Stat3, Table 1) was 154 ± 10 nM and the 50% inhibitory concentration (IC50) (βMpCinn-Leu-Xaa-Apa series, fluorescence polarization) is 154 ± 10 nM.
